We go through one molecule from publication doi:10.1101/2024.06.13.594677v1 (biorxiv, 2024).

Sequences of proteins named here, by UniProt entry; tags and fusion partners are left off.
UniProt P28223, whole entry: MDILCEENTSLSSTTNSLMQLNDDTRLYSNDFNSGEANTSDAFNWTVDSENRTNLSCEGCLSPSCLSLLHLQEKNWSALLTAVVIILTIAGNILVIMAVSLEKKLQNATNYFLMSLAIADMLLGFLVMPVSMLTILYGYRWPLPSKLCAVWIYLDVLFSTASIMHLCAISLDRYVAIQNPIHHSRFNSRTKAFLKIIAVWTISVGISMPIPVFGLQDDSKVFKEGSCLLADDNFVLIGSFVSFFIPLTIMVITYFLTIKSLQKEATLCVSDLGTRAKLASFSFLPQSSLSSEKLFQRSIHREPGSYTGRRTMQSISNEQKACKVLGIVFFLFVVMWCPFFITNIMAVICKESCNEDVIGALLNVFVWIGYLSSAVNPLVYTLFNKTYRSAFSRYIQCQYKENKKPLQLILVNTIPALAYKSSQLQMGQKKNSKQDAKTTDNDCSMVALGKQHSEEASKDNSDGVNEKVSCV

This experiment concerns the target human 5-HT2A receptor (Homo sapiens, UniProt P28223). Further details: species or system SH-SY5Y expressing human 5-HT2A. The note with it: agonist.

Each structure is given as a SMILES string.

For `CCN(CC)C(=O)[C@@H]1C=C2c3cccc4[nH]cc(c34)C[C@H]2N(C)C1` [LSD], the “β-arrestin2 Emax” value was 0.44 ± 0.019.
